Test results: ChEMBL document CHEMBL5113442, “Discovery of agonist-antagonist pairs for the modulation of Ca [2]+ and voltage-gated K+ channels of large conductance that contain beta1 subunits” (Bioorg Med Chem, 2022)

test system: CHO; assay: Agonist activity at rat BK calcium channel alphabeta1 expressed in CHO cells assessed as fold increase in current amplitude at 0.0001 to 33.3 uM by automated whole cell patch clamp analysis; assay type: cell-based; conditions: filed as agonist, dose 0.0001-33.3 µM

Row | Structure (SMILES) | fold change (FC)
1 | C/C(=C/C(=O)C[C@H](C)C(=O)O)[C@@H]1CC(=O)[C@@]2(C)C3=C(C(=O)C[C@]12C)[C@@]1(C)CCC(=O)C(C)(C)[C@@H]1C[C@@H]3O | 8.04
2 | O=C(Nc1ccc(F)cc1)c1nnc(/C(Cl)=C\c2cccc([N+](=O)[O-])c2)s1 | 6.83
3 | O=C1NC(=O)N(c2ccc(F)cc2)C(=O)/C1=C/c1cc(Br)ccc1OCc1cccc([N+](=O)[O-])c1 | 10.3
4 | CC[C@@H](C)NS(=O)(=O)c1cc([N+](=O)[O-])ccc1Oc1c(C)c(C(=O)NC[C@@H]2CCCO2)nn1-c1cccc(C)c1C | 4.56
